One assay has as its system MDA-MB-231. In words: Antiproliferative activity against human MDA-MB-231 cells assessed as reduction in cell growth at 300 uM incubated for 72 hrs in the presence of hypoxic condition by cytofluorimetric analysis. Format: functional, cell-based.
A further assay relates to U-87 MG. In words: Antiproliferative activity against human U-87MG cells assessed as reduction in cell growth at 0.1 to 1000 incubated for 72 hrs in the presence of hypoxic condition by cytofluorimetric analysis. Format: functional, cell-based. The note with it: U-87MG ATCC.

Active and inactive are the calls of the source. The rule behind the calls is not given here.

For the compound `NC(=O)C1=C(c2ccccc2)NC(=S)NC1c1ccc(S(N)(=O)=O)cc1` (centres undefined), the outcome in the assay with MDA-MB-231 and in the assay with U-87 MG was inactive.

Consider `NC(=O)C1=C(c2ccccc2)NC(=O)NC1c1ccc(S(N)(=O)=O)cc1` (centres undefined), for which the outcome in the assay on MDA-MB-231 and in the assay on U-87 MG was inactive.

Source of the values: ChEMBL document CHEMBL5537215, “Benzenesulfonamide decorated dihydropyrimidin(thi)ones: carbonic anhydrase profiling and antiproliferative activity” (RSC Med Chem, 2024).
